Reference: PubChem BioAssay AID1416 (The Scripps Research Institute Molecular Screening Center, 2008)
The entries are a selection whose mix differs from that of the whole data set. The source made the active and inactive calls.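 The calls were made as follows: active = inhibition above the mean inhibition of all tested compounds plus 3 SD, set separately per screening campaign (cut at about 2.9% in these data); inactive = the rest.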

By UniProt entry, the sequences of proteins in these tests, tags left out. Where a name states a change or a piece, a line headed by the entry shows the natural chain unless it says otherwise.
UniProt Q9NZJ5: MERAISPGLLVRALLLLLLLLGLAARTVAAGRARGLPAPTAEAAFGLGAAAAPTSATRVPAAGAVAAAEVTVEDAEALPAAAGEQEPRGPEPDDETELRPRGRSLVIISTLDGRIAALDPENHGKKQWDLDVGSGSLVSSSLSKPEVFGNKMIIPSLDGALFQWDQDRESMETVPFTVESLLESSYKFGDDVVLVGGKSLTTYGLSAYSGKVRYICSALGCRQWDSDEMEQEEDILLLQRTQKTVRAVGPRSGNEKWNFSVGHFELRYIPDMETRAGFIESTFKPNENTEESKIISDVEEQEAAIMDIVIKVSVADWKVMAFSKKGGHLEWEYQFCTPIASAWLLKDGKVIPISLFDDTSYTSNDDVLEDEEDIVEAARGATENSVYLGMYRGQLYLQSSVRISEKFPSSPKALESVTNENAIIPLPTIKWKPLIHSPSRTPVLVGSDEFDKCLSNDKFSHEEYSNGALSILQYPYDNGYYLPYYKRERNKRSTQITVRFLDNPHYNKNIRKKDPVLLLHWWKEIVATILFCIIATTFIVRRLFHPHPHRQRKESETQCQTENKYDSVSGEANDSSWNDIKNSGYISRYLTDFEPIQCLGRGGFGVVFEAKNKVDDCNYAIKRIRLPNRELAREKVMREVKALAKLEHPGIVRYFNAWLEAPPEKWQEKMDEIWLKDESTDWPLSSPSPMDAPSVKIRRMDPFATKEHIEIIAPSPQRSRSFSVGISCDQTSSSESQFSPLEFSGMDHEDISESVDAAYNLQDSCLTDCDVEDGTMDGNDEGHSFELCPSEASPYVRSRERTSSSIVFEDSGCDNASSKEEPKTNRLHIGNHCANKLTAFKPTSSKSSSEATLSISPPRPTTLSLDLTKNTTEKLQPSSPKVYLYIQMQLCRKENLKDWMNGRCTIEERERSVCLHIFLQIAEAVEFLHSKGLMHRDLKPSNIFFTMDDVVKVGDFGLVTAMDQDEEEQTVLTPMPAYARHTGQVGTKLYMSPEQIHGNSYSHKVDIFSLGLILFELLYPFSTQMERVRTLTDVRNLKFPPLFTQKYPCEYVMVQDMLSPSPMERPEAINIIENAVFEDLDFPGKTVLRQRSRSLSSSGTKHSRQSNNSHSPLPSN

Each molecule was assayed against Eukaryotic translation initiation factor 2-alpha kinase 3 (Homo sapiens) (UniProt Q9NZJ5) (assay: block of dimerizer-induced PERK translation repression, primary screen, PERK inhibitor project, CHO PERK-DD cells, SEAP luminescence, HTS (AID 1416;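 also: PERK kinase domain activated by AP20187 dimerizer at 100 nM; 0% = DMSO with dimerizer and 100% = rapamycin at 8.4 µM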)). Conditions: CHO PERK-DD fusion, SEAP luminescence translation reporter; at 5.6 µM; active compounds read high.
With `Cc1cccc(OCC(=O)OC2CN3CCC2CC3)c1` (configuration not stated) the inhibition was inactive: -0.01%.
With `O=[As](O)(c1cccc(O)c1)c1cccc(O)c1` the inhibition was inactive: -0.14%.
`O=C(OC1CN2CCC1CC2)c1ccc(Cl)cc1` (configuration not stated) was tested, and the inhibition was inactive: 1.82%.
In the case of `O=[As](O)(O)c1cccnc1`, the inhibition is reported as inactive: -0.12%.
With `COc1cc(C(=O)NCC2(N3CCOCC3)CCCCC2)cc(Cl)c1OC(C)C` the inhibition was inactive: 0.3%.
With `CC(C)/C=N\N=C(\N)N[N+](=O)[O-]` the inhibition was inactive: 0.77%.
In the case of `CN(C(=O)Cc1ccc(Cl)c(Cl)c1)[C@@H]1CCCC[C@H]1N1CCCC1`, the inhibition is reported as inactive: 0.42%.
For `CC1(CBr)Cn2c(nc3ccccc3c2=O)S1` (configuration not stated), the inhibition was inactive: 0.46%.
For `O=[As](O)(c1ccccc1Br)c1ccccc1Br`, the inhibition was inactive: -0.68%.
In the case of `CC(C)(C)C(=O)NC(Sc1ncccn1)C(Cl)(Cl)Cl` (configuration not stated), the inhibition is reported as inactive: 0.12%.
With `Clc1n[nH]nc1-c1nn[nH][15n]1` the inhibition was inactive: -1.41%.
In the case of `O=P1(Nc2ccccn2)COc2ccccc2OC1`, the inhibition is reported as inactive: 0.6%.
For `CCOP(=O)(Nc1ccc(C)cn1)OCC`, the inhibition was inactive: 1.09%.
In the case of `Nc1cccc([As](=O)(O)c2ccccc2)c1`, the inhibition is reported as inactive: 0.33%.
For `Cc1ccc(OCC(=O)OC2CN3CCC2CC3)cc1` (configuration not stated), the inhibition was inactive: 1.27%.
In the case of `O=[As](O)(c1cccs1)c1cccs1`, the inhibition is reported as inactive: 1.15%.
In the case of `O=P1(Nc2ccc(Br)cn2)COc2ccccc2OC1`, the inhibition is reported as inactive: 0.97%.
`O=P1(Nc2ncccn2)COc2ccccc2OC1` was tested, and the inhibition was inactive: 0.76%.
With `CN(C)C1(CNC(=O)c2ccc(S(C)(=O)=O)cc2)CCCCC1` the inhibition was inactive: 1.6%.
In the case of `O=C(/C=C/c1ccccc1)OC1CN2CCC1CC2` (configuration not stated), the inhibition is reported as inactive: 0.06%.
In the case of `CC1CCC(C(C)C)C(OP(=O)(Nc2ccccn2)c2ccccc2)C1` (configuration not stated), the inhibition is reported as inactive: -0.23%.
For `Cc1nn(-c2ccccc2)c2c1P(=O)(N1CCOCC1)N(C)C(c1ccccc1)=N2` (configuration not stated), the inhibition was inactive: -0.49%.
